Tested on: HLA-A3 supertype molecules
Experiment: HLA-A3 supertype cross-binding (A*0301, A*1101, A*3101, A*3301, A*6801)
Settings: for No. A3 supertype alleles crossbound (200): Table 20, binding affinity threshold of 200 nM or less; for number of A3 supertype alleles bound: of 5 alleles, affinity ≦500 nM; for Number of A3 alleles crossbound: Table 16a, CEA-derived

Row | SMILES | No. A3 supertype alleles crossbound (200) | Number of A3 alleles crossbound | further results
1 | CC(C)C[C@H](NC(=O)[C@@H]1CCCN1C(=O)[C@H](CO)NC(=O)[C@H](C)N)C(=O)N[C@@H](CC(=O)O)C(=O)N[C@@H](CO)C(=O)N[C@H](C(=O)N[C@@H](Cc1ccccc1)C(=O)N[C@@H](Cc1ccc(O)cc1)C(=O)N[C@@H](CCCNC(=N)N)C(=O)O)[C@@H](C)O | 3 |  | 
2 | CC(C)C[C@H](NC(=O)[C@@H](N)Cc1c[nH]cn1)C(=O)N[C@@H](Cc1ccccc1)C(=O)NCC(=O)N[C@@H](Cc1ccc(O)cc1)C(=O)N[C@@H](CO)C(=O)N[C@@H](Cc1c[nH]c2ccccc12)C(=O)N[C@@H](Cc1ccc(O)cc1)C(=O)N[C@@H](CCCCN)C(=O)O | 5 |  | 
3 | CC[C@H](C)[C@H](N)C(=O)N[C@H](C(=O)N[C@@H](Cc1ccc(O)cc1)C(=O)N1CCC[C@H]1C(=O)N1CCC[C@H]1C(=O)N[C@@H](CC(C)C)C(=O)N[C@@H](Cc1c[nH]cn1)C(=O)N[C@@H](CCC(=O)O)C(=O)N[C@@H](CCCNC(=N)N)C(=O)O)C(C)C | 4 |  | 
4 | CSCC[C@H](NC(=O)[C@@H](N)CO)C(=O)N[C@@H](CC(C)C)C(=O)N[C@@H](CCC(=O)O)C(=O)N[C@H](C(=O)N[C@@H](Cc1ccccc1)C(=O)N[C@@H](CCC(=O)O)C(=O)NCC(=O)N[C@@H](CCCCN)C(=O)O)C(C)C | 3 |  | 
5 | CC(C)[C@H](NC(=O)[C@@H](N)CO)C(=O)N[C@@H](Cc1ccccc1)C(=O)N[C@@H](C)C(=O)N[C@@H](Cc1c[nH]cn1)C(=O)N1CCC[C@H]1C(=O)N[C@@H](CCCNC(=N)N)C(=O)N[C@@H](CCCCN)C(=O)O | 3 |  | 
6 | CC[C@H](C)[C@H](NC(=O)[C@H](Cc1ccccc1)NC(=O)[C@H](CC(C)C)NC(=O)[C@@H](NC(=O)[C@H](CCC(N)=O)NC(=O)[C@@H](NC(=O)[C@@H](N)Cc1c[nH]cn1)[C@@H](C)O)C(C)C)C(=O)N[C@@H](C)C(=O)N[C@@H](CCCCN)C(=O)O [CEA.636] |  |  | number of additional A3 supertype alleles bound (besides A*1101): three
7 | CC(C)C[C@H](NC(=O)[C@@H](N)CC(C)C)C(=O)N[C@@H](CC(=O)O)C(=O)N[C@@H](Cc1c[nH]cn1)C(=O)N[C@H](C(=O)N[C@@H](CCCNC(=N)N)C(=O)N[C@@H](CCC(=O)O)C(=O)N[C@@H](CC(N)=O)C(=O)N[C@@H](CCCNC(=N)N)C(=O)O)C(C)C [HER2/neu.806] |  |  | number of A3 supertype alleles bound: 2
8 | CC(C)C[C@H](NC(=O)[C@@H](NC(=O)[C@H](CC(N)=O)NC(=O)[C@H](CCCNC(=N)N)NC(=O)[C@H](C)NC(=O)[C@H](C)NC(=O)[C@@H](N)CC(C)C)C(C)C)C(=O)N[C@H](C(=O)N[C@@H](CCCCN)C(=O)O)C(C)C [HER2/neu.846] |  |  | number of A3 supertype alleles bound: 2
9 | CC(C)C[C@H](NC(=O)[C@@H](N)Cc1c[nH]cn1)C(=O)N[C@@H](Cc1ccccc1)C(=O)NCC(=O)N[C@@H](Cc1ccc(O)cc1)C(=O)N[C@@H](CO)C(=O)N[C@@H](Cc1c[nH]c2ccccc12)C(=O)N[C@@H](Cc1ccc(O)cc1)C(=O)N[C@@H](CCCCN)C(=O)O [compound 42] |  | 5 | 
10 | CC[C@H](C)[C@H](NC(=O)[C@@H](N)[C@@H](C)O)C(=O)N[C@@H](CO)C(=O)N1CCC[C@H]1C(=O)N[C@@H](CC(C)C)C(=O)N[C@@H](CC(N)=O)C(=O)N[C@H](C(=O)N[C@@H](CO)C(=O)N[C@@H](Cc1ccc(O)cc1)C(=O)N[C@@H](CCCNC(=N)N)C(=O)O)[C@@H](C)O [compound 43] |  | 3 | 
11 | CC[C@H](C)[C@H](NC(=O)[C@@H](N)[C@@H](C)O)C(=O)N[C@@H](CO)C(=O)N1CCC[C@H]1C(=O)N[C@@H](CC(C)C)C(=O)N[C@@H](CC(N)=O)C(=O)N[C@H](C(=O)N[C@@H](CO)C(=O)N[C@@H](Cc1ccc(O)cc1)C(=O)N[C@@H](CCCCN)C(=O)O)[C@@H](C)O [compound 44] |  | 3 | 
12 | CC[C@H](C)[C@H](NC(=O)[C@@H](NC(=O)[C@@H]1CCCN1)[C@@H](C)O)C(=O)N[C@@H](CO)C(=O)N1CCC[C@H]1C(=O)N[C@@H](CO)C(=O)N[C@@H](Cc1ccc(O)cc1)C(=O)N[C@H](C(=O)N[C@@H](Cc1ccc(O)cc1)C(=O)N[C@@H](Cc1ccc(O)cc1)C(=O)N[C@@H](CCCNC(=N)N)C(=O)O)[C@@H](C)O [compound 48] |  | 3 | 
13 | CC[C@H](C)[C@H](NC(=O)[C@@H](N)[C@@H](C)O)C(=O)N[C@@H](CO)C(=O)N1CCC[C@H]1C(=O)N[C@@H](CO)C(=O)N[C@@H](Cc1ccc(O)cc1)C(=O)N[C@H](C(=O)N[C@@H](Cc1ccc(O)cc1)C(=O)N[C@@H](Cc1ccc(O)cc1)C(=O)N[C@@H](CCCNC(=N)N)C(=O)O)[C@@H](C)O [compound 49] |  | 4 | 
14 | CC[C@H](C)[C@H](N)C(=O)N[C@@H](CO)C(=O)N1CCC[C@H]1C(=O)N[C@@H](CO)C(=O)N[C@@H](Cc1ccc(O)cc1)C(=O)N[C@H](C(=O)N[C@@H](Cc1ccc(O)cc1)C(=O)N[C@@H](Cc1ccc(O)cc1)C(=O)N[C@@H](CCCNC(=N)N)C(=O)O)[C@@H](C)O [compound 50] |  | 3 | 
15 | CC[C@H](C)[C@H](N)C(=O)N[C@H](C(=O)N1CCC[C@H]1C(=O)N[C@@H](CO)C(=O)N[C@@H](Cc1ccc(O)cc1)C(=O)N[C@H](C(=O)N[C@@H](Cc1ccc(O)cc1)C(=O)N[C@@H](Cc1ccc(O)cc1)C(=O)N[C@@H](CCCNC(=N)N)C(=O)O)[C@@H](C)O)C(C)C [compound 51] |  | 5 | 

The next lines start with results.

Row | No. A3 supertype alleles crossbound (200) | Number of A3 alleles crossbound | SMILES | further results
16 | 3 |  | CC(C)C[C@H](NC(=O)[C@@H](NC(=O)[C@H](CC(N)=O)NC(=O)[C@H](CO)NC(=O)[C@@H](NC(=O)[C@@H](N)Cc1ccccc1)C(C)C)[C@@H](C)O)C(=O)N[C@@H](C)C(=O)N[C@H](C(=O)NCC(=O)N[C@@H](CCCNC(=N)N)C(=O)O)[C@@H](C)O | 
17 | 3 |  | CC[C@H](C)[C@H](NC(=O)[C@@H](N)CCCCN)C(=O)N[C@H](C(=O)N[C@@H](CC(=O)O)C(=O)N[C@@H](Cc1ccccc1)C(=O)NCC(=O)N[C@@H](CC(C)C)C(=O)N[C@@H](C)C(=O)N[C@@H](CCCNC(=N)N)C(=O)O)[C@@H](C)O | 
18 | 4 |  | CSCC[C@H](NC(=O)[C@H](CCCNC(=N)N)NC(=O)[C@H](CO)NC(=O)[C@H](Cc1ccccc1)NC(=O)[C@H](CCC(=O)O)NC(=O)[C@H](CO)NC(=O)[C@@H](NC(=O)[C@@H](N)CC(C)C)C(C)C)C(=O)N[C@@H](C)C(=O)N[C@@H](CCCNC(=N)N)C(=O)O | 
19 | 3 |  | CC[C@H](C)[C@H](NC(=O)[C@H](CO)NC(=O)[C@H](CCC(=O)O)NC(=O)[C@H](CC(C)C)NC(=O)[C@H](C)NC(=O)[C@@H](N)CCSC)C(=O)N[C@@H](CC(C)C)C(=O)N[C@@H](CCCNC(=N)N)C(=O)N[C@@H](CCCNC(=N)N)C(=O)O | 
20 | 4 |  | CC(C)C[C@H](NC(=O)[C@@H](NC(=O)[C@H](CC(C)C)NC(=O)[C@@H](NC(=O)[C@@H](N)CCCNC(=N)N)[C@@H](C)O)[C@@H](C)O)C(=O)N[C@@H](Cc1ccccc1)C(=O)N[C@@H](CC(N)=O)C(=O)N[C@H](C(=O)N[C@H](C(=O)N[C@@H](CCCNC(=N)N)C(=O)O)[C@@H](C)O)C(C)C | 
21 | 3 |  | CC[C@H](C)[C@H](NC(=O)[C@@H](NC(=O)[C@@H](NC(=O)[C@H](CO)NC(=O)[C@H](Cc1ccccc1)NC(=O)[C@H](CO)NC(=O)[C@@H](N)CO)[C@@H](C)O)[C@@H](C)O)C(=O)N[C@@H](CC(N)=O)C(=O)N[C@@H](CCCCN)C(=O)O | 
22 | 4 |  | CC(C)C[C@H](NC(=O)[C@@H](NC(=O)[C@@H](N)CO)C(C)C)C(=O)N[C@@H](CCC(=O)O)C(=O)N[C@H](C(=O)N[C@@H](Cc1ccccc1)C(=O)N[C@@H](CCC(=O)O)C(=O)NCC(=O)N[C@@H](CCCCN)C(=O)O)C(C)C | 
23 | 2 |  | CC(C)C[C@H](NC(=O)[C@@H](N)C(C)C)C(=O)N[C@@H](CCCNC(=N)N)C(=O)N[C@@H](CCC(=O)O)C(=O)N[C@@H](CC(N)=O)C(=O)N[C@H](C(=O)N[C@@H](CO)C(=O)N1CCC[C@H]1C(=O)N[C@@H](CCCCN)C(=O)O)[C@@H](C)O | 
24 | 4 |  | CC[C@H](NC(=O)[C@@H](NC(=O)[C@@H](N)CO)C(C)C)C(=O)N[C@@H](CCSC)C(=O)NCC(=O)NCC(=O)N[C@@H](CCSC)C(=O)N[C@@H](CC(N)=O)C(=O)N[C@@H](CCCNC(=N)N)C(=O)O [SVBMGGMNR] | 
25 |  | 4 | CC(C)C[C@H](NC(=O)[C@@H]1CCCN1C(=O)[C@H](CO)NC(=O)[C@@H](NC(=O)[C@@H](N)[C@@H](C)O)C(C)C)C(=O)N[C@@H](CC(N)=O)C(=O)N[C@H](C(=O)N[C@@H](CO)C(=O)N[C@@H](Cc1ccc(O)cc1)C(=O)N[C@@H](CCCNC(=N)N)C(=O)O)[C@@H](C)O [compound 45] | 
26 |  | 3 | CC(C)C[C@H](NC(=O)[C@H](CC(C)C)NC(=O)[C@@H](NC(=O)[C@H](CC(C)C)NC(=O)[C@@H](NC(=O)[C@@H](N)CCCNC(=N)N)[C@@H](C)O)[C@@H](C)O)C(=O)N[C@@H](CO)C(=O)N[C@H](C(=O)N[C@H](C(=O)N[C@@H](CCCNC(=N)N)C(=O)O)[C@@H](C)O)C(C)C [compound 46] | 
27 |  | 3 | CC(C)C[C@H](NC(=O)[C@H](CC(C)C)NC(=O)[C@@H](NC(=O)[C@H](CC(C)C)NC(=O)[C@@H](NC(=O)[C@@H](N)CCCNC(=N)N)C(C)C)[C@@H](C)O)C(=O)N[C@@H](CO)C(=O)N[C@H](C(=O)N[C@H](C(=O)N[C@@H](CCCNC(=N)N)C(=O)O)[C@@H](C)O)C(C)C [compound 47] | 
28 |  | 4 | CC(C)C[C@H](NC(=O)[C@@H](NC(=O)[C@H](CC(C)C)NC(=O)[C@@H](NC(=O)[C@@H](N)CCCNC(=N)N)[C@@H](C)O)[C@@H](C)O)C(=O)N[C@@H](Cc1ccccc1)C(=O)N[C@@H](CC(N)=O)C(=O)N[C@H](C(=O)N[C@H](C(=O)N[C@@H](CCCNC(=N)N)C(=O)O)[C@@H](C)O)C(C)C [compound 52] | 
29 |  | 4 | CC(C)C[C@H](NC(=O)[C@@H](NC(=O)[C@@H](N)CCCNC(=N)N)C(C)C)C(=O)N[C@H](C(=O)N[C@@H](CC(C)C)C(=O)N[C@@H](Cc1ccccc1)C(=O)N[C@@H](CC(N)=O)C(=O)N[C@H](C(=O)N[C@H](C(=O)N[C@@H](CCCNC(=N)N)C(=O)O)[C@@H](C)O)C(C)C)[C@@H](C)O [compound 53] | 
